Reference: patent EP3492483A1, “COMPOUNDS AND METHODS FOR TREATING BACTERIAL INFECTIONS” (The Washington University, priority 2009, dated 2011)

Protein sequences, listed by entry. Tags and fused reporters are not part of them.
UniProt Q1R2J4, entry or part of it: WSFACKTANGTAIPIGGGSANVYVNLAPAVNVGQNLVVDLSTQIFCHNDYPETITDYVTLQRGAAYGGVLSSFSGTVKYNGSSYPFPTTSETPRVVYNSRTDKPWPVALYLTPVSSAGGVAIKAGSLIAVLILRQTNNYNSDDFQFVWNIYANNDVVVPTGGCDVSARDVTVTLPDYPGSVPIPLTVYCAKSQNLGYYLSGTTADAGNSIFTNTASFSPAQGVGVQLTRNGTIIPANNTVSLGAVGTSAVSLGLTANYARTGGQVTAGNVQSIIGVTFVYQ

Target: T1, FimH (Escherichia coli, UniProt Q1R2J4)
T1 construct: endogenous in cells; host or cells: type 1 piliated UPEC bacteria
Assay: cell-based
Set-up: species or system UPEC

| Compound | EC50 [µM] |
| --- | --- |
| CC(=O)Nc1ccccc1OC1OC(CO)C(O)C(O)C1O (centres unmarked) [Compound 3, N-[2-[3,4,5-trihydroxy-6-(hydroxymethyl)tetrahydropyran-2-yl]oxyphenyl]acetamide] | 125 |
| CCCCO[C@H]1O[C@H](CO)[C@@H](O)[C@H](O)[C@@H]1O [Butylαman, α-D-butylmannoside, reference compound] | 125 |
